Assays:
Nitric oxide synthase 3 = molecular target: T1, Nitric oxide synthase 3 (Homo sapiens, UniProt P29474); test: Inhibition of human eNOS expressed in baculovirus-infected insect sf9 cells assessed as conversion of [3H]-L-arginine to [3H]-L-citrulline preincubated for 15 mins with compound measured after 45 mins by scintillation counting
T1 sequence (P29474 whole entry): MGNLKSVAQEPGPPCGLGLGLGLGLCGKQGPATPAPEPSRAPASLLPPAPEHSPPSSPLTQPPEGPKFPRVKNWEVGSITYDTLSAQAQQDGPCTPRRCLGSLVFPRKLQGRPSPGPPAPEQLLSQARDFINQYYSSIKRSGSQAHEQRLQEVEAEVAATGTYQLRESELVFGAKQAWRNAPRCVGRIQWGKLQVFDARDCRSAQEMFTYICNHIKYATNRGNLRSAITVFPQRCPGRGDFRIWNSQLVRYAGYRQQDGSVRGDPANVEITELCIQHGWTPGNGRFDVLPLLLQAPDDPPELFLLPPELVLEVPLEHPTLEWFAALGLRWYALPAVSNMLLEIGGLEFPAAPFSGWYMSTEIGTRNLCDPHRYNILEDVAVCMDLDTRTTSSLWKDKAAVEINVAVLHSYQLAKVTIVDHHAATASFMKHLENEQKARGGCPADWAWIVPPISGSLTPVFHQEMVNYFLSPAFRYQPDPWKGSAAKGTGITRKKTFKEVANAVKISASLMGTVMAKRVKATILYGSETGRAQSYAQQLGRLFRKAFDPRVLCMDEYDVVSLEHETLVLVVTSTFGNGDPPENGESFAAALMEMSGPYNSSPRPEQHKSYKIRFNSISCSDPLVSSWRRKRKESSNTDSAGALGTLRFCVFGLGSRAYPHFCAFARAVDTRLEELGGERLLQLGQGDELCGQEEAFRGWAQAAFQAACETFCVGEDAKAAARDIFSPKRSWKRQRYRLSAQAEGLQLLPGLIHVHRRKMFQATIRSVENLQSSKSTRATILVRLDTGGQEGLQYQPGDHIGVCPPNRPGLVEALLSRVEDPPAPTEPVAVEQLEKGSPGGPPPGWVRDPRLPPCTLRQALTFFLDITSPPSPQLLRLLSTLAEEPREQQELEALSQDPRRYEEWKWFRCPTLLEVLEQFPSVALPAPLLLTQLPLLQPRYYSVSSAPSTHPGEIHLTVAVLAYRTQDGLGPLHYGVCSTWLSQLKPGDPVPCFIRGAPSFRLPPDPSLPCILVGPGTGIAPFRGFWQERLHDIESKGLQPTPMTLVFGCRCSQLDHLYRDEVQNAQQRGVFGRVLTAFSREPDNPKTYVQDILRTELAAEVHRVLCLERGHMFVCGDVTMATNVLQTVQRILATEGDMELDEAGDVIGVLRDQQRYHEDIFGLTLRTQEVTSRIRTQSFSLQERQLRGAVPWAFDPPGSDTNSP

The chains behind the UniProt entries cited, without tags or fusion partners.
UniProt P29475, whole entry: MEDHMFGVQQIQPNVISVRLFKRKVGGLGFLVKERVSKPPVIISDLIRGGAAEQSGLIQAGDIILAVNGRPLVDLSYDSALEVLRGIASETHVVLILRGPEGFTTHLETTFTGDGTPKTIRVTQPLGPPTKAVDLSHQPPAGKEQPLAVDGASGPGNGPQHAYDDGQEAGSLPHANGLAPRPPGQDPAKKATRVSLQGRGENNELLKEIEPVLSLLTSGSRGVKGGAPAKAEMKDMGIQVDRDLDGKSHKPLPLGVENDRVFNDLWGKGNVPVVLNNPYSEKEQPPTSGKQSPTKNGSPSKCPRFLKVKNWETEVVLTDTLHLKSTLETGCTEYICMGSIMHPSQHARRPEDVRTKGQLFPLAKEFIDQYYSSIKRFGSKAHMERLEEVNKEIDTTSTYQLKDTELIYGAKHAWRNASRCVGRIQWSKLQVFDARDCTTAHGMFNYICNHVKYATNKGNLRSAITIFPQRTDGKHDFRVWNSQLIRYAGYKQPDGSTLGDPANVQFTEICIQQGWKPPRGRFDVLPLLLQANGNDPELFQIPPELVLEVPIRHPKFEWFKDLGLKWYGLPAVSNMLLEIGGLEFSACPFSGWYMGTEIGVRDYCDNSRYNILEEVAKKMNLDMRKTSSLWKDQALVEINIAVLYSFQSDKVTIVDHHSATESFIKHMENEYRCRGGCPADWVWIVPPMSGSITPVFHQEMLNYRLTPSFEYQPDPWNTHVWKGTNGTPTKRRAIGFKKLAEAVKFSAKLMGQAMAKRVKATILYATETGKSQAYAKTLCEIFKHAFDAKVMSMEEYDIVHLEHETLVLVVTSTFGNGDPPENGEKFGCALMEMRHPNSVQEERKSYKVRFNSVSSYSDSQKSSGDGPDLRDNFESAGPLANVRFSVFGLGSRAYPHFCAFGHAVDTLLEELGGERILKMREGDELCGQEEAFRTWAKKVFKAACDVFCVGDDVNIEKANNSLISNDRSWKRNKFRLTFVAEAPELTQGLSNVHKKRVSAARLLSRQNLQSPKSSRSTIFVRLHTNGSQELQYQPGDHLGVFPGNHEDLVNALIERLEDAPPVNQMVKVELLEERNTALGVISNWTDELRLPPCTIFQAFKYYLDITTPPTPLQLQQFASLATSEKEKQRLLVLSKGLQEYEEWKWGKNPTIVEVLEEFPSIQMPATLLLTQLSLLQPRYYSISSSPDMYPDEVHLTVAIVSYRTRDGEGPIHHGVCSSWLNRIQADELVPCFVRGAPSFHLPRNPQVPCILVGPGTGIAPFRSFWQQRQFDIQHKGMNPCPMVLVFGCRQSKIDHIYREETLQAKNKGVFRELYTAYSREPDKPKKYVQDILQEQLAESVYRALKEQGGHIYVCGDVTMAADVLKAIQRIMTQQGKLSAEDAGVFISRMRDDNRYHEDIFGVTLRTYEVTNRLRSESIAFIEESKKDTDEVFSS

Nitric oxide synthase 1 = Nitric oxide synthase 1 (Homo sapiens, UniProt P29475); test: Inhibition of human nNOS expressed in baculovirus-infected insect sf9 cells assessed as conversion of [3H]-L-arginine to [3H]-L-citrulline preincubated for 15 mins with compound measured after 45 mins by scintillation counting

IC50 (Nitric oxide synthase 3) [nM] | Structure (SMILES) | IC50 (Nitric oxide synthase 1) [nM]
19000 | CCN[C@H]1CC[C@@H](c2c[nH]c3ccc(NC(=N)c4cccs4)cc32)CC1 | –
– | CN[C@H]1CCC[C@@H](c2c[nH]c3ccc(NC(=N)c4cccs4)cc23)C1 (racemic) | 490
– | CN[C@H]1CCC[C@H](c2c[nH]c3ccc(NC(=N)c4cccs4)cc23)C1 (racemic) | 300
32000 | CCN[C@H]1CCC[C@@H](c2c[nH]c3ccc(NC(=N)c4cccs4)cc23)C1 (racemic) | 730
11000 | CCN[C@H]1CCC[C@H](c2c[nH]c3ccc(NC(=N)c4cccs4)cc23)C1 (racemic) | 200

Source: ChEMBL document CHEMBL2034871, “First-in-class, dual-action, 3,5-disubstituted indole derivatives having human nitric oxide synthase (nNOS) and norepinephrine reuptake inhibitory (NERI) activity for the treatment of neuropathic pain” (J Med Chem, 2012)
